Measurements reported in patent publication US20050227956A1, “Control of mold growth on wood” (priority 2004, published 2005).

System: Trichoderma virens
Test: Six-well plate screening test
Format: cell-based
Settings: 10 days of incubation at room temperature

O=C1C2CC=CCC2C(=O)N1SC(Cl)(Cl)C(Cl)Cl (stereo not shown)
Minimum Inhibitory Concentrations (MIC): >100 mg/kg
